This is an account of results in patent US9920057B2, “Substituted pyrazino[1′,2′:1 ,6]pyrido[3,4-b]indoles as phosphodiesterase type 5 inhibitors” (Chongqing University of Arts and Sciences, priority 2015, dated 2018).

Protein sequences, listed by entry. Tags and fused reporters are not part of them. Residues count along the entry.
UniProt P27815, 1-647 isoform P27815-4: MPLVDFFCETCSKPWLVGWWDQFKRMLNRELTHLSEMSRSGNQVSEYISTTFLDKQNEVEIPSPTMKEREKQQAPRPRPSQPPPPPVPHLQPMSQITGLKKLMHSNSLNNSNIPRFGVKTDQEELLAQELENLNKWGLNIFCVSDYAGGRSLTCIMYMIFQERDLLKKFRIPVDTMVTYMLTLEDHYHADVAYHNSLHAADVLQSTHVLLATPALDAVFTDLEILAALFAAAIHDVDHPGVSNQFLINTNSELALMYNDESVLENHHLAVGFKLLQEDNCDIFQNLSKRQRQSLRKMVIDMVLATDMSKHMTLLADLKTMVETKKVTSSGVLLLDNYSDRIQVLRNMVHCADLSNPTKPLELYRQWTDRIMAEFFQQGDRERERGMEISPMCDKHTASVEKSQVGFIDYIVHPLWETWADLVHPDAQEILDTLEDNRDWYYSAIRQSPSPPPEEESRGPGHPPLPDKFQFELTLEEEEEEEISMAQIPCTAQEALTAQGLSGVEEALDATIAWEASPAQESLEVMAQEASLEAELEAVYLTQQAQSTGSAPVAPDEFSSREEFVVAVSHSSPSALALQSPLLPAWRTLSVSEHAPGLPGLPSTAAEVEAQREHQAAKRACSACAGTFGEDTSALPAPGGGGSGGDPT

This assay addresses T1, PDE4A (Homo sapiens, UniProt P27815).
T1 construct: purchased
Put plainly: Inhibition of PDE activity (assay kit). Format: biochemical. Here is the method: i. Supplement 99 μl assay buffer per well, then add 1 μl compound in DMSO dilution to wells of V96 MicroWell Plates and uniformly mix;
ii. Add 5 μl compound in assay buffer dilution to each well of 96-well microplate;
the final concentration of compound as below:
The inhibitory potential of test compounds on several types of phosphodiesterase (PDE) activity is determined according to the protocol of assay kit.

The IC50 is the midpoint of a concentration-inhibition curve.

In the case of `CN1CC(=O)N2[C@H](c3ccc4c(c3)OCO4)c3[nH]c4ccccc4c3C[C@@H]2C1=O` [Cialis], the IC50 was over 10 µM.
